Literature values as cited in patent US9782454B2 (LONGEVITY BIOTECH, INC., priority 2010, dated 2017).

Details: in vivo; cited from earlier work

Question: Which “half-life in the blood stream” value does the source give for `CC[C@H](C)[C@H](NC(=O)[C@H](CO)NC(=O)[C@H](CC(N)=O)NC(=O)[C@H](CC(C)C)NC(=O)[C@H](Cc1ccc(O)cc1)NC(=O)[C@H](CCCCN)NC(=O)[C@H](CCCCN)NC(=O)[C@@H](NC(=O)[C@H](C)NC(=O)[C@H](CCSC)NC(=O)[C@H](CCC(N)=O)NC(=O)[C@H](CCCCN)NC(=O)[C@H](CCCN=C(N)N)NC(=O)[C@H](CC(C)C)NC(=O)[C@H](CCCN=C(N)N)NC(=O)[C@@H](NC(=O)[C@H](Cc1ccc(O)cc1)NC(=O)[C@H](CC(N)=O)NC(=O)[C@H](CC(=O)O)NC(=O)[C@@H](NC(=O)[C@H](Cc1ccccc1)NC(=O)[C@@H](NC(=O)[C@H](C)NC(=O)[C@H](CC(=O)O)NC(=O)[C@H](CO)NC(=O)[C@@H](N)Cc1c[nH]cn1)C(C)C)[C@@H](C)O)[C@@H](C)O)C(C)C)C(=O)N[C@@H](CC(C)C)C(=O)N[C@@H](CC(N)=O)C(N)=O` [VIP] here?
Answer: The value was “about two”.
